pKd: −log10 of the molar value.
Tests used:
[1] = molecular target: rhesus monkey ORL1 (rhesus monkey); test: saturation radioligand binding, filtration, on membranes of CHO-K1 cells expressing rhesus monkey ORL1
[2] = molecular target: rhesus monkey ORL1 (rhesus monkey); test: cell-based or functional assay

Sequences of proteins named here, by UniProt entry; tags and fusion partners are left off. A change or cut given only in a name is not applied to a line headed by its entry.
UniProt Q13519: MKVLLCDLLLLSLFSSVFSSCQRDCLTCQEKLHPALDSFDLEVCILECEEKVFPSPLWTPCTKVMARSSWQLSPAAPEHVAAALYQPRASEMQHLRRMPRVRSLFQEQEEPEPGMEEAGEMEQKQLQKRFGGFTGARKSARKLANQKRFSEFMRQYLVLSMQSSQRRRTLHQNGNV

Row | pKd [1] | EC50 of nociceptin-stimulated specific [35S]GTPgammaS binding to membranes [2] | Substance
1 | 10.57 |  | [125I][Tyr14]nociceptin (from UniProt Q13519 130-146) (peptide)
2 |  | 2.3 nM | nociceptin (from UniProt Q13519 130-146) (peptide)
